Tests used:
[1] = target: T1, recombinant human CSF-1R (form not stated) (human, UniProt P07333 20-512, limits assumed); experiment: BIAcore, experiment 3 of 3
T1 construct: for the ELISA no species is stated; also called recombinant CSF-1R; recombinant CSF-1R protein
Method: (§1) The assay format was capture of the anti-CSF-1R antibodies by immobilised anti-human IgG,F(ab′)₂, then a titration of hCSF-1R/Fc over the captured surface. BIA (Biomolecular Interaction Analysis) was performed using a BIAcore 3000 (GE Healthcare Bio-Sciences AB). All experiments were performed at 25° C. An AffiniPure F(ab′)₂ fragment goat anti-human IgG, F(ab′)₂ fragment specific (Jackson ImmunoResearch), was immobilised on a CM5 Sensor Chip (GE Healthcare Bio-Sciences AB) via amine coupling chemistry to a level of ˜5000 response units (RU). HBS-EP buffer (10 mM HEPES, pH 7.4, 0.15M NaCl, 3 mM EDTA, 0.005% Surfactant P20, GE Healthcare Bio-Sciences AB) was used as the running buffer with a flow rate of 10 μl/min.

Protein sequences, listed by entry. Tags and fused reporters are not part of them. Residues count along the entry.
UniProt P07333, 20-512 limits assumed: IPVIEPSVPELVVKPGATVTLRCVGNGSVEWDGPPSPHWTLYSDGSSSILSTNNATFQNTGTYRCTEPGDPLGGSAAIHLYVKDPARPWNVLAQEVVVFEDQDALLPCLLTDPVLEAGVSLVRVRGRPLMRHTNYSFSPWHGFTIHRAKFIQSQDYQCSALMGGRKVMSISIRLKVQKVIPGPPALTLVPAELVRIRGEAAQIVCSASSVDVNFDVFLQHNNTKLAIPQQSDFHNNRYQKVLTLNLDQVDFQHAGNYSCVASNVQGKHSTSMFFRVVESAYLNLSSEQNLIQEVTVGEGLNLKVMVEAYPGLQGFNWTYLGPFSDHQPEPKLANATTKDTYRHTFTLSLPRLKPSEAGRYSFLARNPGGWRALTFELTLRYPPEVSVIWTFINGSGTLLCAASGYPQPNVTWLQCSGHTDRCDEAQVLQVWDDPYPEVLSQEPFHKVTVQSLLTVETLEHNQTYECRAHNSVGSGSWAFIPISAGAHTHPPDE
UniProt P07333, 20-972: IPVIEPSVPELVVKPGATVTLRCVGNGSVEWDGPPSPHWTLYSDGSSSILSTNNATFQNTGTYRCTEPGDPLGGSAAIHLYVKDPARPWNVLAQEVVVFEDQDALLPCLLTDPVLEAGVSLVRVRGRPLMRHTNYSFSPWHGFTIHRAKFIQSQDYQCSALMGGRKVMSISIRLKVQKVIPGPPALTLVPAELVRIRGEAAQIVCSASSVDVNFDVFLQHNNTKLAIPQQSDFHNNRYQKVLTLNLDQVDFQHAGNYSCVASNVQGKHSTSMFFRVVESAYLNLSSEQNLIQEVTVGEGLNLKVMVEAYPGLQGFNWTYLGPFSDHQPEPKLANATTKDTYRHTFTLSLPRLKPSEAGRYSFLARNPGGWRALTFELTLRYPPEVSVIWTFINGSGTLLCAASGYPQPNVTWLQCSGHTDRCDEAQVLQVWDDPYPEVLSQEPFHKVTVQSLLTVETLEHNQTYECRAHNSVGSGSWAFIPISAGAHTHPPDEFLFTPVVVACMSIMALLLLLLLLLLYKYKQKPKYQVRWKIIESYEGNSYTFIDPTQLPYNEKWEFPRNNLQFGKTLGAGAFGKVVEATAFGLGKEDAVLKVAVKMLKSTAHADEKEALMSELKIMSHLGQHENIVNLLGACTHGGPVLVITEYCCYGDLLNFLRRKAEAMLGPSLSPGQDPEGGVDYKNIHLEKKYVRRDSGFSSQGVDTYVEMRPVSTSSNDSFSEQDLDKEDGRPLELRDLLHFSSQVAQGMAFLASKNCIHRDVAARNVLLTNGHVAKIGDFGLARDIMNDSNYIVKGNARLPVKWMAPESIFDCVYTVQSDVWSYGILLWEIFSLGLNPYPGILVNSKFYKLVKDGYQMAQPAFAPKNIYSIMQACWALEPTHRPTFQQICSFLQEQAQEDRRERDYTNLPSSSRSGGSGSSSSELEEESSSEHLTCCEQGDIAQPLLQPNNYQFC

[2] = target: T1, recombinant human CSF-1R (form not …); experiment: BIAcore, DG/SG comparison, crude cell supernatant
[3] = target: T1, recombinant human CSF-1R (form not …); experiment: BIAcore, mean of 3 (fourth row, unlabelled)
Method: as §1

[4] = target: T2, human CSF-1R on cells (THP-1 cells, transfected HEK293F cells, primary human monocytes) (human, UniProt P07333 20-972); experiment: cell-based or functional assay
[5] = target: T1, recombinant human CSF-1R (form not …); experiment: ELISA ligand-blocking assay, antibody pre-mixed with 1 ng/ml CSF-1 (competitor), plate-bound CSF-1R
Text: (§2) This method is from here on referred to as the ‘ELISA ligand-blocking assay’.

[6] = target: T1, recombinant human CSF-1R (form not …); experiment: BIAcore, purified antibody, experiment 1
[7] = target: T1, recombinant human CSF-1R (form not …); experiment: BIAcore, purified antibody, experiment 2
[8] = target: T1, recombinant human CSF-1R (form not …); experiment: BIAcore, experiment 2 of 3
Method: as §1

[9] = target: T1, recombinant human CSF-1R (form not …); experiment: BIAcore, experiment 1 of 3
Method: as §1

[10] = target: T1, recombinant human CSF-1R (form not …); experiment: ELISA ligand-blocking assay, antibody pre-mixed with 100 ng/ml CSF-1 (competitor), plate-bound CSF-1R
Text: as §2

[11] = target: T1, recombinant human CSF-1R (form not …); experiment: BIAcore, purified antibody, mean
[12] = target: T2, human CSF-1R on cells (THP-1 cells, …); experiment: cell-based or functional assay; remark: listed apart in the source
[13] = target: T1, recombinant human CSF-1R (form not …); experiment: ELISA ligand-blocking assay, antibody pre-mixed with 10 ng/ml CSF-1 (competitor), plate-bound CSF-1R
Text: as §2

B1: Ab969.g5 (969gH2gL8(SG)) (antibody, V domains shown)
VH: EVTLKESGPALVKPTQTLTLTCTFSGFSLTTYGMGVGWIRQPPGKALEWLANIWWDDDKYYNPSLKNRLTISKDTSKNQVVLTMTNMDPVDTATYYCARIGPIKYPTAPYRYFDFWGQGTMVTVSS
VL: DIQMTQSPSSLSASVGDRVTITCLASEDIYDNLAWYQQKPGKAPKLLIYYASSLQSGVPSRFSGSGSGTDFTLTISSLQPEDFATYYCLQDSEYPWTFGGGTKVEIKR
Kd [1]: 3.7 pM
koff [1]: 6.76e-06 s⁻¹
kon [1]: 1.84e+06 M⁻¹ s⁻¹
Kd [2]: 1.6 pM
koff [2]: 5e-06 s⁻¹
kon [2]: 3.22e+06 M⁻¹ s⁻¹
Kd [3]: 3.5 pM
koff [3]: 6.26e-06 s⁻¹
kon [3]: 1.8e+06 M⁻¹ s⁻¹
fold decrease in potency against 969.g0, MCP-1 inhibition assay [4]: 13.5 fold
mean IC50, MCP-1 inhibition assay, primary human monocytes, 100 ng/ml CSF-1 [4]: 0.333 µg/mL
IC50 [5]: 0.0197 µg/mL
Kd [6]: 5 pM
koff [6]: 8.13e-06 s⁻¹
kon [6]: 1.63e+06 M⁻¹ s⁻¹
Kd [7]: 5.3 pM
koff [7]: 7.96e-06 s⁻¹
kon [7]: 1.5e+06 M⁻¹ s⁻¹
Kd [8]: 3.8 pM
koff [8]: 7.03e-06 s⁻¹
kon [8]: 1.85e+06 M⁻¹ s⁻¹
Kd [9]: 2.9 pM
koff [9]: 5e-06 s⁻¹
kon [9]: 1.71e+06 M⁻¹ s⁻¹
IC50 [10]: 3.95 µg/mL
Kd [11]: 5.1 pM
koff [11]: 8.05e-06 s⁻¹
kon [11]: 1.57e+06 M⁻¹ s⁻¹
IC50, MCP-1 inhibition assay, Donor 1 [12]: 0.667 µg/mL
IC50, MCP-1 inhibition assay, Donor 2 [12]: 0.1 µg/mL
IC50 ratio against chimeric 969.g0 (number in parentheses), Donor 1 [12]: 21.5 ratio
IC50 ratio against chimeric 969.g0 (number in parentheses), Donor 2 [12]: 17.6 ratio
Mean chimeric/graft IC50 ratio [12]: 19.6 ratio
IC50 [13]: 0.268 µg/mL
